This experiment concerns Mus musculus. The experiment can be described thus: Antinociceptive effect in icv dosed C57BL/6 mouse assessed as tail withdrawal latency measured up to 2 hrs by 55 degC Warm water tail withdrawal assay. The format is functional.

Regarding `CN(C(=O)Cc1ccc(Cl)c(Cl)c1)C1CCCCC1N1CCCC1` (stereo unspecified), the Activity entry is “Dose-dependent effect”.

The values above are taken from ChEMBL document CHEMBL3588754, “Parallel Synthesis of Hexahydrodiimidazodiazepines Heterocyclic Peptidomimetics and Their in Vitro and in Vivo Activities at μ (MOR), δ (DOR), and κ (KOR) Opioid Receptors” (J Med Chem, 2015).
